Source: patent US20230348447A1, “OXAZOLIDINONE COMPOUNDS, LIPOSOME COMPOSITIONS COMPRISING OXAZOLIDINONE COMPOUNDS AND METHOD OF USE THEREOF” (priority 2020, published 2023)
≈ marks a conversion by molar mass, not a printed value.

Legend:
[1] = tested on: M. Tuberculosis Erdman or H37Rv vs VERO or HepG2 cells; assay: Selectivity Index (mammalian cell IC50 / bacterial MIC)
[2] = tested on: mitochondrial protein synthesis (COX-1/SDH-A ratio) in H9C2 rat heart myoblast cells; assay: Mitochondrial protein synthesis inhibition (MitoBiogenesis in-cell ELISA, COX-1/SDH-A); assay type: cell-based; conditions: H9c2, 120 h, read-out: MPS IC50

## CC(=O)NC[C@H]1CN(c2ccc(-c3ccc(-c4nnn(CCN(C)C)n4)nc3)c(F)c2)C(=O)O1 [AKG-38]
[1]
  Selectivity Index (SI) Erd/HepG2: 1616.7
  Selectivity Index (SI) Erd/VERO: 6583.3

## CN(C)CCn1nnc(-c2ccc(-c3ccc(N4C[C@H](CO)OC4=O)cc3F)cn2)n1 [AKG-16]
[1]
  Selectivity Index (SI) Erd/HepG2: 364.0
  Selectivity Index (SI) Erd/VERO: 388.0

## CC(=O)NC[C@H]1CN(c2ccc(N3CCOCC3)c(F)c2)C(=O)O1 [Linezolid]
[2]
  IC50: 2.16 µg/mL (≈ 6.39 µM)
